Target: T1, natural hLAG-3 (70 kDa) protein present in whole cell lysate of PHA-activated human PBMCs (human, UniProt P18627 23-525)
T1 construct: Endogenous protein in a 1% NP-40 whole cell lysate; also called LAG-3 protein from the T-cell lysate
T1 sequence (looked up): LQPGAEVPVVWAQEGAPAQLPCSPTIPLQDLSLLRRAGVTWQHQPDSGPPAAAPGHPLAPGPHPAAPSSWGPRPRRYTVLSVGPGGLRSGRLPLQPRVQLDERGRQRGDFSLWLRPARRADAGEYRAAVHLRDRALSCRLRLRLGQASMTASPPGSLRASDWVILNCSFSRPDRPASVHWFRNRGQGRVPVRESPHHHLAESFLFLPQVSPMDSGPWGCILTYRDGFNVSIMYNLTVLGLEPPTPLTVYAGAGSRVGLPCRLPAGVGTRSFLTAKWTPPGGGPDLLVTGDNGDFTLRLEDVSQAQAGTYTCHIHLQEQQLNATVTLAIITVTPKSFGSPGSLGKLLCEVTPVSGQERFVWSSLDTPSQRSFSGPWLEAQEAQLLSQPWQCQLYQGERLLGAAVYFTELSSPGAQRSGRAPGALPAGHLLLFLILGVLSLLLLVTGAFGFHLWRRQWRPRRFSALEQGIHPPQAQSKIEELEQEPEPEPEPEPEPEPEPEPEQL
Experiment: GST pull-down from lysate of PHA-activated T lymphocytes, Western blot
Description: Bound proteins were incubated with total cell lysates prepared from PHA-activated T lymphocytes. […] Therefore, LAG-3 binds specifically to the LAP protein in vitro, in agreement with the data obtained from the yeast two-hybrid screening procedure.
The hLAG-3 protein was synthesized in vitro using the T7-coupled rabbit reticulocyte lysate system (TNT, Promega, Madison, Wis.). Equal amounts of GST-LAP or control GST proteins immobilized on beads were incubated for 3 hrs at 4° C. with direct whole cell lysates (after centrifugation of nuclei) or with the in vitro translated hLAG-3 protein in a binding buffer (20 mM Tris-HCl pH 7.5, 50 mM NaCl, 1 mM PMSF, 1 μg/ml leupeptin, 1 μg/ml aprotinin). Bound proteins were then extensively washed in PBS buffer and analyzed by Western blotting.

B1: GST alone (control glutathione S-transferase on glutathione-Sepharose beads) (other, UniProt P08515 1-218, looked up)
chain: MSPILGYWKIKGLVQPTRLLLEYLEEKYEEHLYERDEGDKWRNKKFELGLEFPNLPYYIDGDVKLTQSMAIIRYIADKHNMLGGCPKERAEISMLEGAVLDIRYGVSRIAYSKDFETLKVDFLSKLPEMLKMFEDRLCHKTYLNGDHVTHPDFMLYDALDVVLYMDPMCLDAFPKLVCFKKRIEAIPQIDKYLKSSKYIAWPLQGWQATFGGGDHPPK
notes: Control for GST-LAP; also called control GST beads
Question: Does B1 bind?
Answer: Result: no binding
